Assay results reported in PubChem BioAssay AID1468 (National Center for Advancing Translational Sciences (NCATS), 2008).
The entries are a selection whose mix differs from that of the whole data set. Records with an inconclusive call do not appear. The source made the active and inactive calls. The call rests on the fitted dose curve; in most records, active means well fitted inhibition curve with a large enough effect; inconclusive means small, poorly fitted or top-dose-only effect, or effect the other way; inactive means flat fitted curve, though single readings scatter.

The chains behind the UniProt entries cited, without tags or fusion partners.
UniProt P10636, whole entry, looked up: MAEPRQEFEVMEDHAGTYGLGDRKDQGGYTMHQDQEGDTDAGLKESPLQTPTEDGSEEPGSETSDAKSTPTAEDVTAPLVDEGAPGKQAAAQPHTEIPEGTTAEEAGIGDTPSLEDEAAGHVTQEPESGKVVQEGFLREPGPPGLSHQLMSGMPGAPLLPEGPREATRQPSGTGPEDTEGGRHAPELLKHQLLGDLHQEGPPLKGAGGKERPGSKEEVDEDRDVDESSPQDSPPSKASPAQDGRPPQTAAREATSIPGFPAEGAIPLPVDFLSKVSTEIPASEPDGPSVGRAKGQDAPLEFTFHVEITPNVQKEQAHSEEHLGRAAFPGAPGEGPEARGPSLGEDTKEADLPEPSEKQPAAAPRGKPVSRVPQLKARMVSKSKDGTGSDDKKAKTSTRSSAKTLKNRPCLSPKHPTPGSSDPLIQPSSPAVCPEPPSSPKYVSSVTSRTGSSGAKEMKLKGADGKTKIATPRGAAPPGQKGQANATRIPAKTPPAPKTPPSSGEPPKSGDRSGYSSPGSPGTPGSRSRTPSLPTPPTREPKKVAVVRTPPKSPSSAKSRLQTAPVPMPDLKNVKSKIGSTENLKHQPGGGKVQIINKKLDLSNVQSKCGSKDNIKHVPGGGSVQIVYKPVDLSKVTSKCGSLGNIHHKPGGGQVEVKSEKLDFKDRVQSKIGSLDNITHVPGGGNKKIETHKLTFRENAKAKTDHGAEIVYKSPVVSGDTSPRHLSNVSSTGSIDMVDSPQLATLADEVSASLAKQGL

Biological target: Microtubule-associated protein tau (Homo sapiens) (UniProt P10636)
Experiment: qHTS for Inhibitors of Tau Fibril Formation, Fluorescence Polarization; further: nearly all actives have a fitted effect of over 55% in size
Conditions: K18 P301L tau heparin fibrillization, Alexa594 FP, 6 h; series mostly up to 57.7 µM; activity, negative = inhibition: at the top concentration
Source text: NIH Molecular Libraries Probe Production Network [MLPCN]
NIH Chemical Genomics Center [NCGC]
Assay Provider: Carlo Ballatore, University of Pennsylvania
The microtubule-associated protein tau is an abundant protein in the axons of neurons that stabilizes microtubules. With its ability to modulate microtubule dynamics, tau contributes directly or indirectly, to key structural and regulatory cellular functions. Particularly important is the influence tau exerts on axonal transport, which allows signaling molecules, trophic factors and other essential cellular constituents to travel along the axons. Under pathological conditions, tau becomes sequestered into insoluble aggregates called neurofibrillary tangles. This phenomenon is believed to have pathological consequences by promoting axonal transport deficits that ultimately lead to synaptic dysfunction and neuronal loss. To identify inhibitors of tau aggregation, a heparin-induced tau fibril formation assay was used that employed a recombinantly expressed fragment of tau, K18 (Q242-E372), bearing a P301L mutation (Gustke et al. 1994; Hong et al. 1998).
Gustke, N., B. Trinczek, et al. (1994). "Domains of tau protein and interactions with microtubules." Biochemistry 33(32): 9511-22.
Hong, M., V. Zhukareva, et al. (1998).
Li, W. and V. M. Lee (2006). "Characterization of two VQIXXK motifs for tau fibrillization in vitro." Biochemistry 45(51): 15692-701.
von Bergen, M., S. Barghorn, et al. (2001). "Mutations of tau protein in frontotemporal dementia promote aggregation of paired helical filaments by enhancing local beta-structure." J Biol Chem 276(51): 48165-74.
NCGC Assay Protocol Summary:
For screening, 2 uL/well human K18 P301L (15 uM unlabeled and 0.24 uM Alexa 594-labeled tau final concentrations) in reagent buffer (100 mM sodium acetate pH 7) was dispensed into black solid 1536-well plates (Grenier) using a solenoid-based dispenser. Following transfer of 23 nL compound or DMSO vehicle by a pin tool, 2 uL/well heparin (20 uM final concentration) in reagent buffer was added and the plate centrifuged 15 s at 1000 RPM. Plates were incubated 6 hr at 37 C and then 1 uL/well ThT (30 uM final concentration) was added. After a 1 hr ambient incubation, the plates were read by an Envision (Perkin Elmer) to monitor Alexa 594 FP (555 nm excitation and 632 nm emission).
Keywords: NIH Roadmap, MLPCN, MLI, MLSMR, NCGC, qHTS, tau, tauopathies, Alzheimer's disease, fibril, neurodegeneration, aggregation
On the % scale 0 is the no-effect control and ±100 the full control effect.

Structure (SMILES) | activity, negative = inhibition | Potency
CC(C)c1ccc(OP(=O)(Nc2ccccn2)Oc2ccccc2F)cc1 (centres undefined) | inactive: 8.25% | –
ClCCSc1nnc(-c2cccnc2)o1 | inactive: 7.77% | –
CCN(CC)C(=S)SC(NC=O)C(Cl)(Cl)Cl (centres undefined) | inactive: 3.77% | –
CC(C)NC(=O)NP(=O)(Oc1ccccc1)Oc1ccccc1 | inactive: 5.58% | –
O=[N+]([O-])c1cc([N+](=O)[O-])c(-c2ccn[nH]2)s1 | inactive: -4.1% | –
O=[As](O)(c1ccc(O)cc1)c1ccccc1O | inactive: -0.596% | –
C[As](=O)(O)c1cccc(C(=O)O)c1 | inactive: 3.51% | –
Cc1ccc2nc3c(c(C)c2c1)CC(C(Cl)Cl)S3 (centres undefined) | inactive: -3.81% | –
Cc1ccc(OP(=O)(Nc2ccc([N+](=O)[O-])cn2)Oc2ccc(C)cc2)cc1 | inactive: 0.545% | –
COc1ccc(N/C(=N/P(=O)(N2CCOCC2)N2CCOCC2)N2CCOCC2)cc1 | inactive: -8.06% | –
O=C(OC1CN2CCC1CC2)C12CC3CC(CC(C3)C1)C2 (centres undefined) | inactive: 7.77% | –
Cc1cc(=O)[nH]c(N[N+](=O)[O-])n1 | inactive: -6.52% | –
Cc1c2c(nc3ccccc13)SC(C(Cl)Cl)C2 (centres undefined) | inactive: 7.74% | –
COc1cc(I)ccc1[As](=O)(O)O | inactive: 5.91% | –
CCOC(=O)c1ccc(NC(=O)C(C)(CCl)SC)cc1 (centres undefined) | inactive: 5.76% | –
CCC(C)N(CC(C)C)C(=S)SC(NC(C)=O)C(Cl)(Cl)Cl (centres undefined) | inactive: 0.23% | –
COP1(=S)c2c(C)nn(CCC#N)c2N=C(c2ccc(F)cc2)N1C (centres undefined) | inactive: 1.34% | –

Structure (SMILES) | activity, negative = inhibition | Potency
O=C(COc1ccccc1)OC1CN2CCC1CC2 (centres undefined) | inactive: 0.439% | –
CCOC(=O)Nc1cccc([As](=O)(O)O)c1 | inactive: 0.444% | –
O=[N+]([O-])c1ccc(Nc2ccc(Oc3ccc([N+](=O)[O-])cc3[N+](=O)[O-])cc2)c([N+](=O)[O-])c1 | inactive: 3.04% | –
Cc1cc(SC(NC=O)C(Cl)(Cl)Cl)ncn1 (centres undefined) | inactive: -13.7% | –
O=P(Nc1ccccn1)(c1cccc2ccccc12)c1cccc2ccccc12 | inactive: -4.19% | –
CCOC(=O)Nc1ccc([As](=O)(O)O)c(O)c1 | inactive: -1.64% | –
O=P1(Nc2ncccn2)COc2ccccc2OC1 | inactive: -9.8% | –
O=P1(Nc2ccc(Br)cn2)COc2ccccc2OC1 | inactive: -0.017% | –
O=[As](O)(c1cccs1)c1cccs1 | inactive: 14.6% | –
Cc1ccc(OCC(=O)OC2CN3CCC2CC3)cc1 (centres undefined) | inactive: -5.4% | –
Nc1cccc([As](=O)(O)c2ccccc2)c1 | inactive: -0.978% | –
Cc1nn(-c2ccccc2)c2c1P(=O)(N1CCOCC1)N(C)C(c1ccccc1)=N2 (centres undefined) | inactive: 3% | –
CC1CCC(C(C)C)C(OP(=O)(Nc2ccccn2)c2ccccc2)C1 (centres undefined) | inactive: 0.585% | –
O=C(/C=C/c1ccccc1)OC1CN2CCC1CC2 (centres undefined) | inactive: -0.837% | –
CN(C)C1(CNC(=O)c2ccc(S(C)(=O)=O)cc2)CCCCC1 | inactive: -0.842% | –
O=[As](O)(c1ccccc1Br)c1ccccc1Br | inactive: 3.28% | –
CN(C(=O)Cc1ccc(Cl)c(Cl)c1)[C@@H]1CCCC[C@H]1N1CCCC1 | – | inactive
